# Measurements from patent US9884844B2 (priority 2012, dated 2018).
# Molecular target: μ-opioid receptor (Homo sapiens, UniProt P35372)
# Assay: cAMP assay on CHO cells expressing μ-opioid receptor (MOR assay)
# Conditions: read-out: MOR EC50
row,SMILES,EC50
1,"CNC(=O)C[C@]1(F)C(=O)N(C2CCN(C3c4cccc5cccc(c45)[C@@H]3O)CC2)c2ccccc21 (single isomer, unassigned)",> 5000 nM
2,CNC(=O)CC1(OC)C(=O)N(C2CCN([C@H]3c4cccc5cccc(c45)[C@@H]3O)CC2)c2ccccc21 (some centres unmarked),100 to 1000 nM
3,NCC(O)CC1(O)C(=O)N(C2CCN(C3Cc4cccc5cccc3c45)CC2)c2ccccc21 (centres unmarked),100 to 1000 nM
4,CNC(=O)C[C@@]1(O)C(=O)N(C2CCN([C@@H]3c4cccc5cccc(c45)[C@H]3O)CC2)c2ccccc21,1000 to 5000 nM
5,"CNC(=O)C[C@]1(F)C(=O)N(C2CCN(C3c4cccc5cccc(c45)[C@H]3O)CC2)c2ccccc21 (single isomer, unassigned)",> 5000 nM
6,CNC(=O)CC1C(=O)N(C2CCN(Cc3cccc4cccc(C)c34)CC2)c2ccccc21 (centres unmarked),1000 to 5000 nM
7,CN(C)C(=O)CC1(O)C(=O)N(C2CCN(C3Cc4cccc5cccc3c45)CC2)c2ccccc21 (centres unmarked),1000 to 5000 nM
8,CCOC(=O)CC1C(=O)N(C2CCN([C@@H]3c4cccc5cccc(c45)[C@H]3C)CC2)c2ccccc21 (some centres unmarked),100 to 1000 nM
9,COC(=O)NCC1(O)C(=O)N(C2CCN(C3Cc4cccc5cccc3c45)CC2)c2ccccc21 (centres unmarked),> 5000 nM
10,CC1(Cc2ncco2)C(=O)N(C2CCN(C3c4cccc5cccc(c45)C3O)CC2)c2ccccc21 (centres unmarked),> 5000 nM
11,CNC(=O)CC1(OC)C(=O)N(C2CCN(CCC(Oc3cccc(OC)c3)C(C)C)CC2)c2ccccc21 (centres unmarked),> 5000 nM
12,CN1CC2(CC1=O)C(=O)N(C1CCN([C@H]3c4cccc5cccc(c45)[C@@H]3O)CC1)c1ccccc12 (some centres unmarked),100 to 1000 nM
13,CNC(=O)C[C@]1(C)C(=O)N(C2CCN([C@@H]3c4ccccc4CC[C@H]3O)CC2)c2ccccc21,> 5000 nM
14,O=C1N(C2CCN(C3Cc4cccc5cccc3c45)CC2)c2ccccc2C1(F)CC(O)CO (centres unmarked),> 5000 nM
15,CNC(=O)OC1C(=O)N(C2CCN(C3Cc4cccc5cccc3c45)CC2)c2ccccc21 (centres unmarked),100 to 1000 nM
16,"NC[C@H](O)CC1(O)C(=O)N(C2CCN(C3Cc4cccc5cccc3c45)CC2)c2ccccc21 (single isomer, unassigned)",100 to 1000 nM
17,CNC(=O)C[C@@]1(C)C(=O)N(C2CCN([C@H]3c4ccccc4CC[C@@H]3O)CC2)c2ccccc21,> 5000 nM
18,CN(C)C(=O)CC1(F)C(=O)N(C2CCN(C3Cc4cccc5cccc3c45)CC2)c2ccccc21 (centres unmarked),100 to 1000 nM
19,COCCC1(O)C(=O)N(C2CCN([C@@H]3Cc4cccc5cccc3c45)CC2)c2ccccc21 (some centres unmarked),> 5000 nM
20,"CNC(=O)C[C@@]1(F)C(=O)N(C2CCN(C3c4cccc5cccc(c45)[C@H]3O)CC2)c2ccccc21 (single isomer, unassigned)",> 5000 nM
21,CNC(=O)CC1(O)C(=O)N(C2CCN(CCC(Oc3cc(OC)ccc3Cl)C(C)C)CC2)c2ccccc21 (centres unmarked),100 to 1000 nM

row,SMILES,EC50
1,CNC(=O)CC1(C)C(=O)N(C2CCN([C@H]3c4cccc5cccc(c45)[C@]3(C)O)CC2)c2ccccc21 (some centres unmarked),100 to 1000 nM
2,Cn1cnc(CC2(C)C(=O)N(C3CCN(C4c5cccc6cccc(c56)C4O)CC3)c3ccccc32)n1 (centres unmarked),> 5000 nM
3,CNC(=O)CC1C(=O)N(C2CCN(CCC(Oc3cc(C)ccc3Cl)C(C)C)CC2)c2ccccc21 (centres unmarked),100 to 1000 nM
4,CNC(=O)C[C@@]1(O)C(=O)N(C2CCN([C@H]3c4cccc5cccc(c45)[C@@H]3O)CC2)c2ccccc21,100 to 1000 nM
5,CN(C)C(=O)CC1(C)C(=O)N(C2CCN([C@H]3c4cccc5cccc(c45)[C@@H]3O)CC2)c2ccccc21 (some centres unmarked),100 to 1000 nM
6,Cc1cccc2cccc(CN3CCC(N4C(=O)C(O)(CC(O)CN)c5ccccc54)CC3)c12 (centres unmarked),> 5000 nM
7,CC1(CC(O)CO)C(=O)N(C2CCN([C@@H]3Cc4cccc5cccc3c45)CC2)c2ccccc21 (some centres unmarked),> 5000 nM
8,CNCC(O)CC1(C)C(=O)N(C2CCN(C3Cc4cccc5cccc3c45)CC2)c2ccccc21 (centres unmarked),> 5000 nM
9,CC1(CC(O)CN)C(=O)N(C2CCN(C3Cc4cccc5cccc3c45)CC2)c2ccccc21 (centres unmarked),100 to 1000 nM
10,CN1CC2(OC1=O)C(=O)N(C1CCN(C3Cc4cccc5cccc3c45)CC1)c1ccccc12 (centres unmarked),100 to 1000 nM
11,CNC(=O)CC1(O)C(=O)N(C2CCN([C@H]3c4cccc5cccc(c45)[C@]3(C)O)CC2)c2ccccc21 (some centres unmarked),1000 to 5000 nM
12,CNC(=O)C[C@]1(C)C(=O)N(C2CCN([C@H]3CCCc4ccccc43)CC2)c2ccccc21,100 to 1000 nM
13,CNC(=O)C[C@]1(C)C(=O)N(C2CCN([C@H]3c4ccccc4CC[C@@H]3O)CC2)c2ccccc21,> 5000 nM
14,O=C1NCC2(O1)C(=O)N(C1CCN(C3Cc4cccc5cccc3c45)CC1)c1ccccc12 (centres unmarked),100 to 1000 nM
15,CNC(=O)CC1(O)C(=O)N(C2CCN(C3Cc4cccc5c4C3N(C)CC5)CC2)c2ccccc21 (centres unmarked),> 5000 nM
16,CC(=O)OC1C(=O)N(C2CCN(C3Cc4cccc5cccc3c45)CC2)c2ccccc21 (centres unmarked),100 to 1000 nM
17,C[C@H](O)CC1(O)C(=O)N(C2CCN(C3Cc4cccc5cccc3c45)CC2)c2ccccc21 (some centres unmarked),> 5000 nM
18,CNC(=O)CC1(O)C(=O)N(C2CCN([C@H]3c4cccc5cccc(c45)[C@@H]3O)CC2)c2ccccc21 (some centres unmarked),100 to 1000 nM
19,CNC(=O)CC1(O)C(=O)N(C2CCN(Cc3cccc4cccc(C)c34)CC2)c2ccccc21 (centres unmarked),1000 to 5000 nM
20,C[C@@]1(C[C@H](O)CN)C(=O)N(C2CCN([C@@H]3Cc4cccc5cccc3c45)CC2)c2ccccc21,> 5000 nM
21,O=C1C(CC(O)CN(Cc2ccccc2)Cc2ccccc2)c2ccccc2N1C1CCN(C2Cc3cccc4cccc2c34)CC1 (centres unmarked),> 5000 nM

row,SMILES,EC50
1,CNC(=O)C[C@]1(O)C(=O)N(C2CCN([C@H]3c4cccc5cccc(c45)[C@@H]3O)CC2)c2ccccc21,100 to 1000 nM
2,Cc1cccc2cccc(CN3CCC(N4C(=O)C(O)(CC5CNC(=O)O5)c5ccccc54)CC3)c12 (centres unmarked),1000 to 5000 nM
3,O=C1N(C2CCN(C3Cc4cccc5cccc3c45)CC2)c2ccccc2C1(O)Cc1ncco1 (centres unmarked),> 5000 nM
4,CN1CC2(C(=O)N(C3CCN(C4Cc5cccc6cccc4c56)CC3)c3ccccc32)N(C)C1=O (centres unmarked),100 to 1000 nM
5,CNC(=O)C[C@]1(O)C(=O)N(C2CCN([C@@H]3c4cccc5cccc(c45)[C@H]3O)CC2)c2ccccc21,100 to 1000 nM
6,CN(C)C(=O)CC1(C)C(=O)N(C2CCN(C3Cc4cccc5cccc3c45)CC2)c2ccccc21 (centres unmarked),100 to 1000 nM
7,O=C1NCCC12C(=O)N(C1CCN(C3Cc4cccc5cccc3c45)CC1)c1ccccc12 (centres unmarked),100 to 1000 nM
8,O=C1N(C2CCN(C3Cc4cccc5cccc3c45)CC2)c2ccccc2C1(O)CCO (centres unmarked),> 5000 nM
9,CNC(=O)CC1C(=O)N(C2CCN(C3c4cccc5cccc(c45)[C@@H]3C)CC2)c2ccccc21 (some centres unmarked),100 to 1000 nM
10,CN(C)C(=O)CC1C(=O)N(C2CCN(C3Cc4cccc5cccc3c45)CC2)c2ccccc21 (centres unmarked),100 to 1000 nM
11,"NC[C@@H](O)CC1(O)C(=O)N(C2CCN(C3Cc4cccc5cccc3c45)CC2)c2ccccc21 (single isomer, unassigned)",100 to 1000 nM
12,CN(C)C(=O)CC1(O)C(=O)N(C2CCN([C@H]3c4cccc5cccc(c45)[C@@H]3O)CC2)c2ccccc21 (some centres unmarked),100 to 1000 nM
13,CNC(=O)CC1C(=O)N(C2CCN(C3c4cccc5cccc(c45)C3O)CC2)c2ccccc21 (centres unmarked),100 to 1000 nM
14,"CNC(=O)C[C@@]1(F)C(=O)N(C2CCN(C3c4cccc5cccc(c45)[C@@H]3O)CC2)c2ccccc21 (single isomer, unassigned)",> 5000 nM
15,COc1ccc(Cl)c(OC(CCN2CCC(N3C(=O)C(CC(=O)N(C)C)c4ccccc43)CC2)C(C)C)c1 (centres unmarked),100 to 1000 nM
16,CNC(=O)CC1(O)C(=O)N(C2CCN(C3Cc4cccc5ccnc3c45)CC2)c2ccccc21 (centres unmarked),> 5000 nM
17,CNC(=O)CC1(O)C(=O)N(C2CCN(C3c4cccc5cccc(c45)C3(C)C)CC2)c2ccccc21 (centres unmarked),100 to 1000 nM
18,COCCC1(O)C(=O)N(C2CCN([C@H]3c4cccc5cccc(c45)C3O)CC2)c2ccccc21 (some centres unmarked),> 5000 nM
19,CNC(=O)CC1(F)C(=O)N(C2CCN(C3(C)Cc4cccc5cccc3c45)CC2)c2ccccc21 (centres unmarked),1000 to 5000 nM
20,O=C(/C=C1/C(=O)N(C2CCN(C3Cc4cccc5cccc3c45)CC2)c2ccccc21)N1CCCCC1 (centres unmarked),> 5000 nM
21,CN(C)CC(O)CC1(C)C(=O)N(C2CCN(C3Cc4cccc5cccc3c45)CC2)c2ccccc21 (centres unmarked),> 5000 nM

row,SMILES,EC50
1,CNC(=O)CC1(F)C(=O)N(C2CCN([C@H]3c4cccc5cccc(c45)[C@@H]3O)CC2)c2ccccc21 (some centres unmarked),> 5000 nM
2,C[C@]1(C[C@H](O)CN)C(=O)N(C2CCN([C@@H]3Cc4cccc5cccc3c45)CC2)c2ccccc21,> 5000 nM
3,CCOC(=O)CC1C(=O)N(C2CCN([C@H]3c4cccc5cccc(c45)[C@H]3C)CC2)c2ccccc21 (some centres unmarked),100 to 1000 nM
4,COc1ccc(Cl)c(OC(CCN2CCC(N3C(=O)C(O)(CC(=O)N(C)C)c4ccccc43)CC2)C(C)C)c1 (centres unmarked),> 5000 nM
5,CNC(=O)CC1(O)C(=O)N(C2CCN([C@H]3c4ccccc4CC[C@@H]3O)CC2)c2ccccc21 (some centres unmarked),100 to 1000 nM
6,CC1(Cc2ncn[nH]2)C(=O)N(C2CCN(C3c4cccc5cccc(c45)C3O)CC2)c2ccccc21 (centres unmarked),> 5000 nM
7,CNC(=O)CC1(C)C(=O)N(C2CCN(CCC(Oc3cccc(OC)c3)C(C)C)CC2)c2ccccc21 (centres unmarked),100 to 1000 nM
8,CNC(=O)C[C@@]1(C)C(=O)N(C2CCN([C@@H]3c4ccccc4CC[C@H]3O)CC2)c2ccccc21,> 5000 nM
9,O=C1NCC(CC2C(=O)N(C3CCN(C4Cc5cccc6cccc4c56)CC3)c3ccccc32)O1 (centres unmarked),100 to 1000 nM
10,Cn1ncnc1CC1(C)C(=O)N(C2CCN(C3c4cccc5cccc(c45)C3O)CC2)c2ccccc21 (centres unmarked),> 5000 nM
11,NC(=O)CC1(O)C(=O)N(C2CCN(C3Cc4cccc5cccc3c45)CC2)c2ccccc21 (centres unmarked),100 to 1000 nM
12,CN1CC2(CC1=O)C(=O)N(C1CCN(C3Cc4cccc5cccc3c45)CC1)c1ccccc12 (centres unmarked),100 to 1000 nM
13,COC(=O)NCC1(O)C(=O)N(C2CCN([C@@H]3c4cccc5cccc(c45)[C@H]3O)CC2)c2ccccc21 (some centres unmarked),> 5000 nM
14,CC1(Cc2ncco2)C(=O)N(C2CCN([C@@H]3Cc4cccc5cccc3c45)CC2)c2ccccc21 (some centres unmarked),> 5000 nM
15,Cc1cccc2cccc(CN3CCC(N4C(=O)C(C)(CC5CNC(=O)O5)c5ccccc54)CC3)c12 (centres unmarked),100 to 1000 nM
16,CNC(=O)CC1(OC)C(=O)N(C2CCN(CCC(Oc3cc(OC)ccc3Cl)C(C)C)CC2)c2ccccc21 (centres unmarked),100 to 1000 nM
17,C[C@@H](O)CC1(O)C(=O)N(C2CCN(C3Cc4cccc5cccc3c45)CC2)c2ccccc21 (some centres unmarked),> 5000 nM
18,NCC1(O)C(=O)N(C2CCN(C3Cc4cccc5cccc3c45)CC2)c2ccccc21 (centres unmarked),> 5000 nM
19,Cc1cccc2cccc(CN3CCC(N4C(=O)C(CC5CNC(=O)O5)c5ccccc54)CC3)c12 (centres unmarked),100 to 1000 nM
20,CNC(=O)CC1C(=O)N(C2CCN(C3c4cccc5cccc(c45)C3C)CC2)c2ccccc21 (centres unmarked),100 to 1000 nM
